The target in test [1] is T1, DRB1*0405 (DR4w15) (Homo sapiens, UniProt P01903+P01911, A100R/A169T/D86S/F76Y/I96L/K127E/L162R/M171V/N62H/P40V/Q125Y/R42H/S133A/S149N/S66Y/V115G/V209L/W38E).
T1 construct: endogenous in cells; host or cells: KT3
The test is described as follows: HLA class II peptide binding assay. Conditions: for DR4w15 binding data: Table XIXb.

Sequences of proteins named here, by UniProt entry; tags and fusion partners are left off. Residues count along the entry.
UniProt Q30154, 30-266: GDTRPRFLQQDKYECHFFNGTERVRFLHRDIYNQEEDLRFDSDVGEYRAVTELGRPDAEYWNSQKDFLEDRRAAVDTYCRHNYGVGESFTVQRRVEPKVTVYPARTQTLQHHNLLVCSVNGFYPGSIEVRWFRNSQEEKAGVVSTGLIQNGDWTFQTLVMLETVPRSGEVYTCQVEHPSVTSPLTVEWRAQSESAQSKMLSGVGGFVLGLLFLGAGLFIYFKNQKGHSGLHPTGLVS

For test [2], the target named is T2, DRB1*1201 (DR5w12) (Homo sapiens, UniProt P01903+P01911, A100R/A169T/D57E/D86V/F55L/H45Y/K41T/L162R/M171V/P40S/Q125H/Q178H/Q39Y/Q99D/R42G/S66L/T262R/V114A/V67L/W38E/Y59H/Y61H/Y89S).
T2 construct: endogenous in cells; host or cells: Herluf
The test is described as follows: HLA class II peptide binding assay. The note with it: for DR5w12 binding data: Table XIXb.

Test [3] deals with HLA-A*1101 (Homo sapiens, UniProt P04439, A114D/D185E/E176A/F33Y/L180Q/S129P/T187R). The test is described as follows: HLA class I peptide binding assay. The note with it: Malaria A11 motif peptides, Table XVII; binding value for HLA-A*1101, unit not given.
Test [4] concerns the target T3, DRB1*0301 (DR3) (Homo sapiens, UniProt P01903+P01911, A100K/A102G/A103R/A169T/F55Y/I96L/K41T/L162R/M171V/P40S/Q125H/Q178H/Q39Y/R42S/S66N/T106N/T262R/W38E/Y61H).
T3 construct: endogenous in cells; host or cells: MAT
The test is described as follows: HLA class II peptide binding assay (pH 4.5). Conditions: for DR3 binding data: Table XIXb.

For test [5], the target named is T4, DRB1*0101 (DR1) (Homo sapiens, UniProt P01903+P01911, A100R/D57E/F55L/F60I/F76Y/I96L/L162R/M171V/P40L/Q125E/R42F/V115G/Y59C).
T4 construct: endogenous in cells; host or cells: LG2
Briefly: HLA class II peptide binding assay. Conditions: for DR1 binding data: Table XIXb, Malaria Super Motif Peptides With Binding Data.

Test [6] concerns the target T5, DRB1*1501 (DR2w2β1) (Homo sapiens, UniProt P01903+P01911).
T5 construct: expressed in transfected cells; host or cells: L466.1 (fibroblasts)
Briefly: HLA class II peptide binding assay. The note with it: for DR2w2β1 binding data: Table XIXb.

The target of test [7] is T6, DRB1*0401 (DR4w4) (Homo sapiens, UniProt P01903+P01911, A100K/A169T/F76Y/I96L/K127E/L162R/M171V/N62H/P40V/Q125Y/R42H/S133A/S149N/S66Y/V115G/V209L/W38E).
T6 construct: endogenous in cells; host or cells: Preiss
Briefly: HLA class II peptide binding assay. Conditions: for DR4w4 binding data: Table XIXb.

Test [8] deals with T7, DRB5*0101 (DR2w2β2) (Homo sapiens, UniProt P01903+Q30154).
T7 construct: expressed in transfected cells; host or cells: L416.3 (fibroblasts) or GM3107
The test is described as follows: biochemical. The class given is binding.

The target in test [9] is T8, DRB1*0701 (DR7) (Homo sapiens, UniProt P01903+P01911, A100R/A102G/A103Q/D57E/D86V/E43K/F76Y/K127E/L162R/M171V/P40G/Q125H/Q99D/R33Q/R42Y/R54Q/S133A/S66F/T210M/V115G/Y107V/Y59L/Y89S).
T8 construct: endogenous in cells; host or cells: Pitout
The class given is binding.

Test [10] deals with T9, DRB1*0802 (DR8w2) (Homo sapiens, UniProt P01903+P01911, A100R/A103L/A169T/F76Y/H45Y/I96F/K41T/L162R/M171V/P40S/Q125H/Q178H/Q39Y/Q99D/R218S/R42G/S66Y/V115G/W38E).
T9 construct: endogenous in cells; host or cells: OLL
The test is classed as binding.

For test [11], the target named is T10, DRB1*1302 (DR6w19) (Homo sapiens, UniProt P01903+P01911, A100E/A169T/K41T/L162R/M171V/P40S/Q125H/Q178H/Q39Y/Q99D/R42S/S66N/T262R/V115G/W38E/Y61H).
T10 construct: endogenous in cells; host or cells: H0301
The test is described as follows: HLA class II peptide binding assay. Conditions: for DR6w19 binding data: Table XIXb.

The target in test [12] is T11, DRB4*0101 (DRw53) (Homo sapiens, UniProt P01903+P13762, G164S).
T11 construct: expressed in transfected cells; host or cells: L257.6 (fibroblasts)
Briefly: HLA class II peptide binding assay (pH 5.0). The note with it: Table XIXb.

The target in test [13] is T12, DRB1*0901 (DR9) (Homo sapiens, UniProt P01903+P01911, A100R/A103E/D57H/D86V/F55Y/F60I/F76Y/I96F/K127E/L162R/M171V/P40D/Q125H/Q99R/R33Q/R42F/S133A/S66N/T210M/V115G/W38K/Y107V/Y59G/Y89S).
T12 construct: endogenous in cells; host or cells: HID
Briefly: biochemical. The class given is binding.

Test [14] deals with T13, HLA-A*0301 (Homo sapiens, UniProt P04439).
T13 construct: endogenous in cells; host or cells: GM3107
The test is described as follows: HLA class I peptide binding assay. Conditions: Malaria A03 supermotif peptides; binding value, no unit given.

Test [15] has as its target HLA-A*0201 (Homo sapiens, UniProt P04439, D140Y/D185E/D98H/E176V/E277Q/G131W/G231S/I119V/I121R/I166T/I218V/L300P/L318F/N151K/N90K/P208A/P217A/Q86G/Q94H/R138H/R169H/T345S). Briefly: HLA class I peptide binding assay. The note with it: Malaria A02 motif peptides, Table VIII; unit not given.
The mark [16] stands for this setting: Malaria DR3b motif peptides, unit not given.

The results in this text go back to patent US20160193316A1 (priority 1994, published 2016).

In general, IC50 refers to the concentration that gives 50% inhibition. A high value points to weaker potency.

In turn, LLIFHINGK showed a DR4w15 binding data in test [1] of -0.0030. The DR5w12 binding data in test [2] is 0.0410. The “A*1101 (binding information)” value in test [3] came out at 0.0100. In [4], this compound showed a DR3 binding data of -0.0043. Also, in test [5], the DR1 binding data stood at 0.0640. In test [6], this compound came in with a DR2w2β1 binding data of 0.7100. The compound further gave a DR4w4 binding data in [7] of 0.0110. In [8], the DR2w2β2 binding data worked out at 0.0070.

Turning to INGKIIKNS, in test [9], the DR7 binding data stood at 0.0150. The same compound displayed a DR4w15 binding data in test [1] of 0.0038. In test [10], this compound gave a DR8w2 binding data of 0.0400. This compound showed a DR5w12 binding data in test [2] of 0.0055. In test [11], the DR6w19 binding data is 0.0120. The compound further displayed a DRw53 binding data in [12] of 0.0020. In test [4], the DR3 binding data is on record as 0.0120. The DR1 binding data in [5] was found to be 0.0320. In addition, the DR2w2β1 binding data in test [6] is reported as 0.0220. This compound gave a DR4w4 binding data in [7] of -0.0007. Besides, in test [8], the DR2w2β2 binding data came out at 0.0660.

The compound FHINGKIIK had a DR7 binding information in [9] of 0.1300. The DR4w15 binding information in test [1] (setting [16]) was -0.0030. Also, the DR8w2 binding information in test [10] is 0.1400. The DR5w12 binding information in test [2] (setting [16]) was determined as 0.0230. The compound further yielded a DR6w19 binding information in [11] (setting [16]) of 0.0330. The compound also yielded a DR3 binding information in [4] (setting [16]) of 0.5300. In [5] (setting [16]), this compound returned a DR1 binding information of 0.5700. In test [13], this compound returned a DR9 binding information of 0.1500. This compound yielded a DR2w2β1 binding information in test [6] (setting [16]) of 0.2900. Besides, the DR4w4 binding information in [7] (setting [16]) is listed as 0.0060. The compound also returned a DR2w2β2 binding information in [8] of 0.2500.

With NLLIGHINGK, the “A*301 (binding data)” value in test [14] stood at 0.0049.

LVNLLIFHI gave a DR7 binding data in test [9] of 0.0059. In test [15], the “A*0201 (binding information)” value is on record as 0.0006. In addition, the DR4w15 binding data in test [1] was determined as 0.0027. The DR8w2 binding data in test [10] is listed as 0.0005. In [2], this compound yielded a DR5w12 binding data of 0.0006. In addition, the DR6w19 binding data in [11] is listed as 0.0013. In addition, the DRw53 binding data in test [12] worked out at 0.0290. Further, the DR3 binding data in test [4] was -0.008. In test [5], this compound displayed a DR1 binding data of 0.0018. Further, the DR9 binding data in test [13] was determined as 0.0040. Moreover, in [6], the DR2w2β1 binding data stood at 0.0004. The compound further displayed a DR4w4 binding data in test [7] of 0.0160. The same compound showed a DR2w2β2 binding data in test [8] of 0.0120.

Take `CC[C@H](C)[C@H](NC(=O)[C@H](Cc1c[nH]cn1)NC(=O)[C@H](Cc1ccccc1)NC(=O)[C@@H](NC(=O)[C@H](CC(C)C)NC(=O)[C@@H](N)CC(C)C)[C@@H](C)CC)C(=O)N[C@@H](CC(N)=O)C(=O)NCC(=O)N[C@@H](CCCCN)C(=O)N[C@H](C(=O)N[C@H](C(=O)N[C@@H](CCCCN)C(=O)N[C@@H](CC(N)=O)C(=O)N[C@@H](CO)C(=O)N[C@@H](CCC(=O)O)C(=O)O)[C@@H](C)CC)[C@@H](C)CC` [Peptide 27.0402]: the “Alleles bound (DR3)” value in test [4] (binding to DR3, Table XXXIV) was “DR3”. The IC50 in test [13] was 0.5 µM; in [8] it was 0.08 µM.
